# Patent US12564583B2, “Small molecules against cereblon to enhance effector T cell function” (H. LEE MOFFITT CANCER CENTER AND RESEARCH INSTITUTE, INC., priority 2016, dated 2026)
# Test system: human T cells
# Experiment: Viability and proliferation of activated T cells
# Format: cell-based
smiles,measurement,value
"Nc1cccc2c1CN(C1CCC(=O)NC1=O)C2=O (stereo not shown) [Lenalidomide, lenalidomide]",proliferation,increase proliferation
